{"source": "paper PMC10993414", "about": "“Water Quality Monitoring with the Multiplexed Assay MitoOxTox for Mitochondrial Toxicity, Oxidative Stress Response, and Cytotoxicity in AREc32 Cells” (Environmental Science & Technology, 2024)", "key": {"AREc32 cells [1]": {"tested_on": "AREc32 cells", "settings": "human"}, "AREc32 cells [2]": {"tested_on": "AREc32 cells", "settings": "human", "remark": "listed apart in the source"}, "AREc32 cells [3]": {"tested_on": "AREc32 cells", "assay": "Cytotoxicity with ImageXpress high-content imaging, MitoOxTox", "settings": "cell viability, AREc32, 24 h"}}}
{"substance": "Oligomycin A", "values": [{"measurement": "Cytotoxicity Incucyte IC10", "setting": "AREc32 cells [1]", "value": 1.58, "unit": "nM"}, {"measurement": "Cytotoxicity Incucyte log(IC10 (M))", "setting": "AREc32 cells [1]", "value": -8.80}, {"measurement": "Cytotoxicity ImageExpress IC10", "setting": "AREc32 cells [2]", "value": 1.81, "unit": "nM"}, {"measurement": "Cytotoxicity ImageExpress log(IC10 (M))", "setting": "AREc32 cells [2]", "value": -8.74, "unit": "M"}, {"measurement": "IC10", "setting": "AREc32 cells [3]", "value": 1.8, "unit": "nM"}]}
